{
  "source": "patent US10251958B2",
  "about": "“Nanoparticles for drug delivery comprising albumin having a polymer chain coupled thereto” (NEWSOUTH INNOVATIONS PTY LIMITED, priority 2013, dated 2019)",
  "key": {"[1]": {"experiment": "DLS hydrodynamic diameter of BSA conjugated copolymer (Example 2)", "assay_type": "physicochemical", "experimental": "^1H-NMR spectra were acquired to characterised compounds using CDCl3 or d-DMSO with a 300 MHz spectrometer. Thermogravimetric analysis (TGA) was carried out using TG5000 to quantify the amount of platinum conjugated to the copolymers. The sample (≤5 mg) was placed on a thermo-balance and heated from room temperature to 600° C. at 20° C./min, and held for an isothermal period of 60 minutes under nitrogen atmosphere. Diameter size of copolymers in 0.1M PBS buffer pH 7.0 was measured using a Malvern dynamic light scattering instrument (DLS) in a disposable plastic cuvette (1 cm path length). Fluorescence measurements were performed on Agilent Cary Eclipse Fluorescence Spectrometer using a 1 cm quartz cuvette. Fluorescence spectra were recorded between 400-800 nm at λex=495 nm, λem=520 nm with entrance and exit slit width of […]. SDS-PAGE was performed using standard techniques using a premixed electrophoresis buffer which contains 25 mM Tris, 192 mM glycine and 0.1% SDS (Tris/Glycine/SDS buffer) to determine the conjugation efficiency between the BSA-FITC and the copolymer. Samples were prepared for electrophoresis without the use of a reducing agent. The samples were mixed with bromophenol blue (0.01% w/v) solution as the marker. […] Gel images were recorded using a Bio-Rad GS-800 calibrated densitometer. […]"}, "[2]": {"experiment": "Hydrodynamic diameter and zeta potential of materials and complexes (Example 3)", "assay_type": "physicochemical", "experimental": "Solutions of albumin-PDMAEMA conjugates with required albumin to PDMAEMA ratios were prepared. The resulting conjugates were dialysed in 0.05 M PBS (pH5) for 12 h by changing solvent every 2 h. […] All the conditions were kept consistent to the corresponding oligonucleotide samples. In addition, the oligonucleotide transfection efficiency of the PEGMEMA-PDMAEAM cationic block copolymer was investigated. The same protocol was adopted to make the polyion complex micelles from this polymer solution.\nThe condensation of the oligonucleotide was therefore carried out when the conjugate solution was at pH5 and the oligonucleotide was dissolved in MilliQ water. The albumin-polymer conjugates with a pH of 5 was then slowly added to the solutions of ISIS 5132 with the concentration of 200 μg/ml (ζ=−29.87 mV at pH7). […] If using the conjugates with higher ratios of BSA to polymer, the particle size of the polyion complex micelle was seen to increase dramatically due to the natural aggregation of albumin. After the complex micelle was stable, the system was brought back to pH7. There are several reasons for this: to reduce the aggregation of the micelle, to protect the oligonucleotide and to keep the neutral environment for cells in the afterward cytotoxicity assays."}, "[3]": {"settings": "pH 7, ISIS 5132 200 ug/ml, BSA 1 mg/ml, PDMAEMA 0.21 mg/ml"}},
  "data": [
    {"substance": "bovine serum albumin [BSA]", "values": [
      {"measurement": "Dh number (d/nm)", "setting": "[1]; 0.1M PBS pH 7, 25° C.", "value": 9.93, "unit": "nm"},
      {"measurement": "PDi", "setting": "[1]; 0.1M PBS pH 7, DLS", "value": 0.42},
      {"measurement": "Dh", "setting": "[2]; pH 5, conc. of BSA 1 mg/ml", "value": 6.28, "unit": "nm"},
      {"measurement": "Zeta potential", "setting": "[2]; pH 5, conc. of BSA 1 mg/ml", "value": "−2.53", "unit": "mV"},
      {"measurement": "Dh", "setting": "[2]; [3]", "value": 5.4, "unit": "nm"},
      {"measurement": "Zeta potential", "setting": "[2]; [3]", "value": "−5.64", "unit": "mV"}
    ]}
  ]
}
